Measured values from patent publication US20230134922A1, “TOPICAL DELIVERY OF BUFFERING AGENTS FOR PREVENTION AND TREATMENT OF VIRAL INFECTIONS” (Dyve Biosciences, Inc., priority 2020, published 2023).

Test system: MCF-7 tumors
Experiment: MCF-7 tumor growth in SCID mice, doxorubicin with oral or topical bicarbonate
Assay type: in vivo

Substance: doxorubicin
- anal discharge (GI tract cytotoxicity) (Group D, doxorubicin with oral bicarbonate): anal discharge
- anal discharge (GI tract cytotoxicity) (Group F, doxorubicin with topical bicarbonate formulation): not noted
